Assay [1] deals with Vascular endothelial growth factor receptor 2 (Homo sapiens, UniProt P35968). Description: Inhibition of VEGFR2.
Assay [2] addresses Proto-oncogene tyrosine-protein kinase Src (Homo sapiens, UniProt P12931, T341M). Description: Inhibition of SRC T341M mutant.
A further assay concerns the target Aurora kinase B (Homo sapiens, UniProt Q96GD4). The assay can be described thus: Inhibition of Aurora B at 3.0 nM.

Protein sequences, listed by entry. Tags and fused reporters are not part of them.
UniProt P35968, whole entry: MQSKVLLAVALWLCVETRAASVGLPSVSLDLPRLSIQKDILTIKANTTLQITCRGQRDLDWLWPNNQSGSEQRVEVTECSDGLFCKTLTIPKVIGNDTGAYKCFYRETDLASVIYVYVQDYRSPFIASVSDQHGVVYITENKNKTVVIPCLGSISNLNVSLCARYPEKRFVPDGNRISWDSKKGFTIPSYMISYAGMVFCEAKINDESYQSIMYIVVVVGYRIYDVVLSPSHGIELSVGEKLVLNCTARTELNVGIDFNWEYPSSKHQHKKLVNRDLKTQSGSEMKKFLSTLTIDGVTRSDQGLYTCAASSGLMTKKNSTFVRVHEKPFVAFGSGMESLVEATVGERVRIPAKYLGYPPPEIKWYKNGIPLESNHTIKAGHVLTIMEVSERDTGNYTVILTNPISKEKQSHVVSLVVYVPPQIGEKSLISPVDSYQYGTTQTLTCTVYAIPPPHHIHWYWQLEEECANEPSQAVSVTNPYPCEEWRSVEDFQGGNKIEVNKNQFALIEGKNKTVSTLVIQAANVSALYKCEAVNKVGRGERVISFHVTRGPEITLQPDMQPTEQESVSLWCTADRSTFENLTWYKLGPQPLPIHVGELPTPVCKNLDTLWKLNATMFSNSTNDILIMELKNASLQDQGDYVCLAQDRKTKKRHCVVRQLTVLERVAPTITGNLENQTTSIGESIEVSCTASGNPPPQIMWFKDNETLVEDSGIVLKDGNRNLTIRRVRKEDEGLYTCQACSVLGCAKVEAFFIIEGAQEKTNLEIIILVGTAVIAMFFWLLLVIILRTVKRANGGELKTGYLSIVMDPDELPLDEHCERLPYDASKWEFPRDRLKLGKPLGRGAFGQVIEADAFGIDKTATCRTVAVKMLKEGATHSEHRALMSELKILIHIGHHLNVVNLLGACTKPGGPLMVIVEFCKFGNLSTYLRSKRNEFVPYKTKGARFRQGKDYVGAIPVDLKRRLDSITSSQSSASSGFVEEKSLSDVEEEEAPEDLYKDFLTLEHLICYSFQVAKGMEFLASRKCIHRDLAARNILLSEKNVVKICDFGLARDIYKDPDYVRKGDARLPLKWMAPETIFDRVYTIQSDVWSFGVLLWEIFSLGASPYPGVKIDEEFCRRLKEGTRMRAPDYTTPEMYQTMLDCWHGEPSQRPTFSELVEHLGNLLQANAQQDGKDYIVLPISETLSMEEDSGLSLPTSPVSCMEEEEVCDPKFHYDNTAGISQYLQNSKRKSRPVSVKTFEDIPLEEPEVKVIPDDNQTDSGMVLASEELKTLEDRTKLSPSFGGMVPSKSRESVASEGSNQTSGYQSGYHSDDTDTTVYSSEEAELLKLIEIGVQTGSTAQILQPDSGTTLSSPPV
UniProt Q96GD4, whole entry: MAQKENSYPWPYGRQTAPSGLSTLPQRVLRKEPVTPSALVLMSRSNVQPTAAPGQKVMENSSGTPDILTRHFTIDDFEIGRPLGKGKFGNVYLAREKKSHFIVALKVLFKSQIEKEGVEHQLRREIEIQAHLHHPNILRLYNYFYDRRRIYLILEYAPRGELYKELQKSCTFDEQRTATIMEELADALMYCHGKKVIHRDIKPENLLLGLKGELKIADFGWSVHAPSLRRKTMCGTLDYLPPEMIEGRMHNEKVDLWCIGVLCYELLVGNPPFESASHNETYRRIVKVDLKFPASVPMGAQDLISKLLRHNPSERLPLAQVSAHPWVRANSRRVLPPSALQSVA

Each structure is given as a SMILES string.

As to `O=C(Nc1c[nH]nc1-c1nc2cc(CN3CCOCC3)ccc2[nH]1)NC1CC1` [AT-9283], the IC50 in assay [1] and in assay [2] was 10 nM in each case.
In the case of `O=C(Nc1c[nH]nc1-c1nc2ccc(CN3CCOCC3)cc2[nH]1)NC1CC1` [AT-9283], the inhibition against Aurora kinase B was 58%.

Values taken from ChEMBL document CHEMBL1139387, “Fragment-based discovery of the pyrazol-4-yl urea (AT9283), a multitargeted kinase inhibitor with potent aurora kinase activity” (J Med Chem, 2009).
